Data set [1] in a line: Water solubility in sensory oil (solvency of the oil for water). Particulars: yes/no. The data set is classed as physicochemical. The source says:
(§1) A sensory oil can be used in the antibacterial composition to assist in leaving the user with a non-tacky feeling to the skin after application of the composition. The antibacterial composition comprises a sensory oil in an amount of 0.01 to 10% by weight, preferably 0.5 to 5% by weight including all values and ranges subsumed therein. The sensory oil can comprise a soluble sensory oil. Sensory oils desirable for use in the antibacterial composition disclosed herein must meet the following criteria: the sensory oil must be liquid, the sensory oil must be soluble in at least a 75/25 or higher ratio of EtOH/Water which is to be reflective of solubility in the final composition to give a clear final antibacterial composition, and the sensory oil must have no solvency for water.
(§2) The examples are not meant to limit the materials that can be used but merely to illustrate oil type and level selected based on three criteria. […] Finally, the preferred oil must itself not have solvency for water such that during application and on drying as the ethanol and water evaporate, the water is also allowed to quickly evaporate leaving behind only the oil and any skin benefit actives/moisturizers if present.

Data set [2] in a line: Solubility of sensory oil in 75/25 EtOH/Water blend. It is filed as physicochemical.
Description: as §1, §2

On to Glycereth-5 lactate, for which the “Water solubility in sensory oil” value in data set [1] is listed as “Yes”. Also, the “Solubility in 75/25 EtOH/Water” value in data set [2] is recorded as above 30%.
On the same counts, the results for Glycereth-7 lactate are “Yes” and above 30%.
Turning to PPG15 Stearyl ether, in data set [1], the “Water solubility in sensory oil” value is on record as “No”. The “Solubility in 75/25 EtOH/Water” value in data set [2] was above 30%.

These data come from US20230301883A1, “MOISTURIZING ANTIBACTERIAL COMPOSITION” (priority 2020, published 2023).
